Measured values as given in patent publication US10261017B2, “Methods for detecting and categorizing skin sensitizers” (University of Mississippi, priority 2014, dated 2019).

Columns and labels:
[1] = pH 10
thiol peptide = conditions: reported results from the literature; cited from earlier work

CCCCBr [1-Bromobutane]
DCYA 100-RI [1]: 100.0
Cys-DPRA % Pept. remain. (thiol peptide): 86.2%
